# B1: eNOS of pulmonary artery endothelial cells (PAEC) (protein)
# chain: GNLKSVGQEPGPPCGLGLGLGLGLCGKQGPATPAPEPSRAPAPATPHAPEHSPAPNSPTLTRPPEGPKFPRVKNWEVGSITYDTLCAQSQQDGPCTPRRCLGSLVLPRKLQSRPSPGPPPAEQLLSQARDFINQYYSSIKRSGSQAHEERLQEVEAEVATTGTYHLGESELVFGAKQAWRNAPRCVGRIQWGKLQVFDARDCSSAQEMFTYICNHIKYATNRGNLRSAITVFPQRTPGRGDFRIWNSQLVRYAGYRQQDGSVRGDPANVEITELCIQHGWTPGNGRFDVLPLLLQAPDEPPELFALPPELVLEVPLEHPTLEWFAALGLRWYALPAVSNMLLEIGGLEFPAAPFSGWYMSTEIGTRNLCDPHRYNILEDVAVCMDLDTRTTSSLWKDKAAVEINLAVLHSYQLAKVTIVDHHAATASFMKHLENEQKARGGCPADWAWIVPPISGSLTPVFHQEMVNYVLSPAFRYQPDPWKGSAAKGTGIARKKTFKEVANAVKISASLMATVMPKRVKASILYASETVRAQSYAQQLGRLFRKAFDPRVLCMDEYDVVSLEHETLVLVVTSTFGNGDPPENGESFAAALMEMSGPYNGSPRPEQHRSYKIRFNSVSCSDPLVSSWRRKRKESSNTDSAGALGTLRFCVFGLGSRAYPHFCAFARAVDTRLEELGGERLLQLGQGDELCGQEEAFRGWAQAAFQASCETFCVGEDAKAAARDIFSPKRSWKRQRYRLSAQVEGLQLLPGLVHVHRRKMFQATVLSVENLQSSKSTRATILVRLDTEGQEGLQYQPGDHIGICPPNRTGLVEALLSRVEDPTPPTESVGVEQLEKGSPGGPPPSWVRDPRLPPYTLRQALTFFLDITSPPSPRLLRVLSTLAEEPSEQQELETLSQDPRRYEEWKWFRCPTLLEVLEQFPSVALPTPLLLTQLALLQPRYYSVSSAPSTYPGEIHPTVAVLAYRTQDGLGPLHYGVCSTWLGQLKPGDPVPCFIRAAPSFRLPPDPSLPCILVGPGTGIAPFRGFWQERLHDIESKGLQPAPMTLVFGCRCSQLDHLYRDEVQDAQQRGVFGRVLTAFSREPDSPKTYVQDILRTELAAEVHRVLCLERGHMFVCGDVTMATSVLQTVQRILATEGNMELDEAGDVIGVLRDQQRYHEDIFGLTLRTQEVTSRIRTQSFSLQERHLRGAVPWTFDPPGPDTPGP
# Molecular target: β-actin of pulmonary artery endothelial cells (PAEC), Q6QAQ1
protein,measurement,value
B1,eNOS activity in PAEC after β-actin siRNA,reducing β-actin availability prevented hyperoxia-induced increase in eNOS activity

# From patent US20120115785
